Target: Peroxisome proliferator-activated receptor gamma (Homo sapiens, UniProt P37231)
Assay: Inhibition of PPARgamma assessed as transcriptional activity

Sequences of proteins named here, by UniProt entry; tags and fusion partners are left off. A change or cut given only in a name is not applied to a line headed by its entry.
UniProt P37231: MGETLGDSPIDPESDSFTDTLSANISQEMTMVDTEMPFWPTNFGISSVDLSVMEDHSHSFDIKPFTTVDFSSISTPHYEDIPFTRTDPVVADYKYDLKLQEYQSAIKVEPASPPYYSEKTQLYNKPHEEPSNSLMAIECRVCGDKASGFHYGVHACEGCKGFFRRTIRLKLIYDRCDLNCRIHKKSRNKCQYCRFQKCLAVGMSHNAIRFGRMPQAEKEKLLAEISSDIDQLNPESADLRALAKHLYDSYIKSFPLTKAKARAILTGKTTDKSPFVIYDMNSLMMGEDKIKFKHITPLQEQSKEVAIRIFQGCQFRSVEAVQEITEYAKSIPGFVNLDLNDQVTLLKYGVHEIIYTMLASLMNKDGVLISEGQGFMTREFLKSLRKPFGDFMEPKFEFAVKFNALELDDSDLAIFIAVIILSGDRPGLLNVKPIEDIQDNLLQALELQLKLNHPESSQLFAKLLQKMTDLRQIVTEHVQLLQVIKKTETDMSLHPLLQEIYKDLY

COC1Oc2cc(O)c3c(c2C(=O)N1C(=O)NCc1cccc2ccccc12)OC1=CC(O)=C(C(C)=O)C(=O)[C@]13C (stereo partly specified)
IC50: 620 nM
